Measured values as given in PubChem BioAssay AID463254 (National Center for Advancing Translational Sciences (NCATS), 2010).
The list shows a part of the results, in another mix than the full data. Activity calls are given as the source filed them. The call rests on the fitted dose curve; in most records, active means well fitted inhibition curve with a large enough effect; inconclusive means small, poorly fitted or top-dose-only effect, or effect the other way; inactive means flat fitted curve, though single readings scatter.

Sequences of proteins named here, by UniProt entry; tags and fusion partners are left off.
UniProt O75604, whole entry: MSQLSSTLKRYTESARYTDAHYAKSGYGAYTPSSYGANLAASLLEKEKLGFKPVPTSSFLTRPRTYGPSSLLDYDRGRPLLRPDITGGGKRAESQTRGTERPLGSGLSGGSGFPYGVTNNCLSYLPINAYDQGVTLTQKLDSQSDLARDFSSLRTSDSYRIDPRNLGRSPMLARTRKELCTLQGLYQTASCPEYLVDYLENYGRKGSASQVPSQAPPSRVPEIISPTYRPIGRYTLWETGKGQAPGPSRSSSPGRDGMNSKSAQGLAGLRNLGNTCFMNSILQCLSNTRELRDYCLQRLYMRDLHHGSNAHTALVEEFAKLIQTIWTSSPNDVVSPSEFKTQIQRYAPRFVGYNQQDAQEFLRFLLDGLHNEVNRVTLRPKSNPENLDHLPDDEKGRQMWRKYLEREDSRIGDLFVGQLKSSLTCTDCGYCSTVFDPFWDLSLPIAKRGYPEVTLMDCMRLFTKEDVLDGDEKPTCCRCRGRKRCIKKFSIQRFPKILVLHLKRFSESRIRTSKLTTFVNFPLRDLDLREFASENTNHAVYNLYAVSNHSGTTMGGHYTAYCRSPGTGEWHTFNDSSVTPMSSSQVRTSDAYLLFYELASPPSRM

Target: Ubiquitin carboxyl-terminal hydrolase 2 (Homo sapiens) (UniProt O75604)
Assay: qHTS Assay for Inhibitors of Ubiquitin-specific Protease USP2a Using CHOP2 as the Reporter;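 further: plate controls were DMSO wells for no effect and full inhibition by NEM control for full effect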
Details: USP2 core, Ub-CHOP2 coupled fluorogenic reporter, 485/531; at 38.3 µM (top of the series)
How it was run: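 USP2 core (10nM final) preincubated 30min RT with compound in 20mM Tris-HCl pH 8.0, 2mM CaCl2, 2mM beta-mercaptoethanol, 0.05% CHAPS; 25nM Ub-CHOP2 plus 25nM reporter substrate added, fluorescence (Ex485/Em531) read after 60min.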

Structure (SMILES)	activity change, negative = inhibition
CC(C)(C)c1ccc(OP(C)(=O)O)cc1	inactive: 0.578%
COc1ccccc1OP(C)(=O)Nc1ccccc1Br (stereo unspecified)	inactive: 0.325%
CP(=O)(Nc1ccc(Cl)cc1)Oc1ccc(F)cc1 (stereo unspecified)	inactive: -1.29%
CN(C)C(=O)c1c([N+](=O)[O-])cc([N+](=O)[O-])cc1[N+](=O)[O-]	inactive: -5.19%
CP(=O)(Nc1ccc(SC(F)(F)F)cc1)Oc1ccc(F)cc1 (stereo unspecified)	inactive: 4.69%
CCOP(C)(=S)SCC(=O)NC(C)(CC)C(=O)O (stereo unspecified)	inactive: -0.0623%
CP(=O)(Nc1ccc2c(c1)OCCO2)Oc1ccccc1 (stereo unspecified)	inactive: -10.8%
Cc1ccccc1NP(C)(=O)Nc1ccccc1C	inactive: 1.32%
COc1ccc(OP(C)(=O)Nc2cccc(Br)c2)cc1 (stereo unspecified)	inactive: 2.56%
CN(C)CCOC(=O)C(O)(c1ccccc1)C1CCCCC1 (stereo unspecified)	inactive: 0.712%
COc1ccc(NP(C)(=O)Oc2ccccc2OC)cc1 (stereo unspecified)	inactive: 0.996%
O=[N+]([O-])c1ccc(OP2(=O)COCCO2)cc1 (stereo unspecified)	inactive: -1.07%
Cc1cc(-c2cccc3ccccc23)c(C)cn1.O=[N+]([O-])c1cc([N+](=O)[O-])c(O)c([N+](=O)[O-])c1	inactive: -1.01%
CCOC(=O)c1ccc(NP(C)(=O)Oc2ccc(F)cc2)cc1 (stereo unspecified)	inactive: 2.87%
COc1ccc(OP(C)(=O)Nc2ccc(SC(F)(F)F)cc2)cc1 (stereo unspecified)	inactive: -5.13%
CCN(CC)CCCOC(=O)C(O)(c1ccccc1)C1CCCCC1 (stereo unspecified)	inactive: 0.0281%
CP(=O)(Nc1ccccc1)Oc1ccc(F)cc1 (stereo unspecified)	inactive: -1.08%
CCCCCOc1ccc(NP(C)(=O)Oc2ccc(Cl)cc2Cl)cc1 (stereo unspecified)	inactive: -13.1%
CP(=O)(Nc1ccccc1F)Oc1ccccc1 (stereo unspecified)	inactive: -0.329%
CC(C)c1ccc(OP(C)(=O)Nc2ccc(SC(F)(F)F)cc2)cc1 (stereo unspecified)	inactive: -1.4%
O=C(OCCN1CCN(CCOCc2ccccc2)CC1)C(O)(c1ccccc1)c1ccccc1	inactive: 0.803%
